Read-outs that look alike come from different tables or passages of the source.
How the values were obtained:
[1] = not given; remark: listed apart in the source
[2] = not given; remark: listed apart in the source
[3] = tested on: conscious subjects (canine); assay: Adrenalectomized canine, insulin-induced hypoglycemia, basal vs high IV glucagon; settings: IV insulin 0.8 mU/kg/min, both groups, increased from ~10
[4] = tested on: conscious subjects (canine); assay: Subcutaneous two-pump insulin and glucagon infusion, hypoglycemia (subjects 7-11)
[5] = tested on: conscious canine subjects; assay: Subcutaneous co-infusion at reduced basal rates (insulin 0.32 mU/kg/min, glucagon 1.68 ng/kg/min); settings: last 1 hour of basal hormone replacement period, subcutaneous insulin 0.32 mU/kg/min
[6] = tested on: conscious canine subjects; assay: Subcutaneous co-infusion insulin 0.4 mU/kg/min and glucagon 2.1 ng/kg/min with 4-fold insulin challenge; settings: insulin challenge period, insulin 1.6 mU/kg/min, both groups
[7] = tested on: conscious subjects (canine); assay: IV pancreatic clamp, insulin-induced hypoglycemia, glucagon raised proportionally vs kept basal (subjects 1, 2, 5, 6); settings: mean of 4 hypoglycemic subjects, similar at I/G 3-5 and I/G 12-25
[8] = insulin infusion rate increased 4-fold, subcutaneous

## insulin
150 to 180 min, somatostatin, subcutaneous insulin 0.4 mU/kg/min
  arterial insulin, average: 9.8±1.4 μU/mL
After 90 min subcutaneous insulin 0.4 mU/kg/min (endogenous and infused)
  arterial plasma insulin: 9.4±0.8 μU/mL
Basal hormone replacement period
  decrease of insulin level within the liver vs baseline: ~50%
Basal hormone replacement period, endogenous secretion inhibited
  estimated insulin level within the liver: 7.8 μU/mL
Insulin infusion rate increased 4-fold
  arterial insulin level, ultimately reached: 38.8±3.5 μU/mL
[8]
  increase of arterial insulin level: ~4 fold
  lag time of arterial insulin increase: ~90 min
Insulin infusion rate increased 4-fold, within 90 min
  arterial insulin level: 34.5±2.9 μU/mL
Subcutaneous insulin 0.4 mU/kg/min
  increase of arterial insulin from baseline: approximately 40%
[1]; DMSO
  solubility (concentration in supernatant): greater than 8 mg/mL
[1]; NMP
  solubility (concentration in supernatant): greater than 8 mg/mL
[1]; glycerol
  solubility (concentration in supernatant): less than 2 mg/mL
[1]; propylene glycol
  solubility (concentration in supernatant): less than 2 mg/mL
[2]; 95% PBS and 5% vitamin E TPGS
  individual DS solubility: 1380 µg/mL
[2]; all co-solvents comprising 34.5-35.5% PB
  concentration reached in co-solvents: Target concentrations
[2]; all co-solvents tested where organic co-solvent greater than 30% of the mixture, PB pH 7.8
  concentration reached in co-solvents: target concentrations
[3]
  arterial insulin level: ~40 μU/mL
[4]; subcutaneous insulin 0.4 mU/kg/min, end of the basal period
  average arterial plasma insulin level: 10-12 μU/ml
[4]; subcutaneous, 4-fold increase in insulin infusion rate, both groups
  plasma insulin: approximately 45 μU/ml
[5]
  insulin level, average: 6 μU/mL
[6]
  increase of arterial insulin levels: ~4 fold
[7]
  rise in insulin (plasma): approximately 50 μU/ml
